Patent publication US20040209246A1, “Dual reporter/dye reduction methodology for evaluating antiviral and cytotoxicity of hepatitis C virus inhibitors” (Agouron Pharmaceuticals, Inc., priority 2003, published 2004)

Experiments:
[1] = system: B6b dual reporter replicon cell line (Huh-7)
From the text: (§1) In the current invention, two end points will be used to measure CC50 values. The first is XTT dye reduction methodology and the second is the use of the second reporter gene integrated in the nucleus of cells carrying the reporter-selectable HCV replicons. In case of both methodologies, a CC50 value will be generated from the same wells from which an EC50 value was obtained. The CC50 value would be generated by calculating % cytotoxicity of the inhibitor/compound treated wells compared to the no inhibitor/compound well resulting in generation of a dose dependent curve to obtain the value that was responsible for the death of 50% of the cells.
(§2) Cell line BB7 M4 hRLuc#10 was grown in DMEM without phenol red (catalog # 1053-028) at 10% FBS with 4 mM L-glutamine, 1×Pen-step, 1×non-essential amino acids, and 200 μg/ml G418 (all from Gibco BRL/Invitrogen). Line B6b was grown in the same media with the addition of 6 μg/ml Blasticidin (ICN Biomedicals). Experiments in these replicon lines were carried out in 96-well black wall, clear-bottom plates (Costar®; Corning Incorporated). Cells were seeded as diagrammed in the figure below at a density of 2×10^4/well in 100 μl DMEM (described above) without G418 or Blasticidin. […]
(§3) Cell line BB7 M4 hRLuc #10 contained the selectable reporter replicon BB7 M4-hRLuc, which served as an anti-viral marker, but cytotoxicity had to be measured by XTT. […]

[2] = system: B6b dual reporter replicon cell line (Huh-7); experiment: XTT dye reduction cytotoxicity, cell line B6b; details: three days incubation
From the text: as §1, §2, §3

[3] = system: BB7 M4 hRLuc#10 replicon cell line (Huh-7); experiment: XTT dye reduction cytotoxicity, cell line #10; details: cell line #10, XTT dye reduction, three days incubation
From the text: as §1, §2, §3

interferon alpha [IFN]
>10 IU/ml: CC50 (FLuc) [1] | CC50 (XTT) [2] | CC50 (XTT) [3]
